Source: US20120220522A1, “ESTER INSULIN” (priority 2009, published 2012)

Molecular target: insulin receptor (IR), B-isoform (UniProt P06213)
Assay: receptor binding affinity; displacement of 125I-human insulin from isolated IR isoform B, two-site sequential model

Kd: 0.044 nM
Substance: mature insulin lispro (3) derived from ester insulin lispro (ligand)
